Source: PMC3937304, “The Secreted Triose Phosphate Isomerase of Brugia malayi Is Required to Sustain Microfilaria Production In Vivo” (PLoS Pathogens, 2014)

Substrate: O=C(CO)COP(=O)(O)O
Test: purified protein
Format: biochemical, Oryctolagus cuniculus
Settings: DHAP to G3P direction, 100 mM TEA-HCl pH 7.6, 1 mM EDTA, 1 mM NAD+, 5 mM disodium hydrogen arsenate, 25 °C, 0.16-10 mM DHAP

B1: native rabbit TPI (Oryctolagus cuniculus) (protein)
chain: APSRKFFVGGNWKMNGRKKNLGELITTLNAAKVPADTEVVCAPPTAYIDFARQKLDPKIAVAAQNCYKVTNGAFTGEISPGMIKDCGATWVVLGHSERRHVFGESDELIGQKVAHALSEGLGVIACIGEKLDEREAGITEKVVFEQTKVIADNVKDWSKVVLAYEPVWAIGTGKTATPQQAQEVHEKLRGWLKSNVSDAVAQSTRIIYGGSVTGATCKELASQPDVDGFLVGGASLKPEFVDIINAKQ
notes: native commercial enzyme (Sigma), untagged
Km: 1732 µM
